# Test results from US11408900B2, “Secreted P-glycoprotein is a non-invasive biomarker of chronic rhinosinusitis” (Massachusetts Eye and Ear Infirmary, priority 2016, dated 2022).
# The chains behind the UniProt entries cited, without tags or fusion partners.
# UniProt P08183, whole entry: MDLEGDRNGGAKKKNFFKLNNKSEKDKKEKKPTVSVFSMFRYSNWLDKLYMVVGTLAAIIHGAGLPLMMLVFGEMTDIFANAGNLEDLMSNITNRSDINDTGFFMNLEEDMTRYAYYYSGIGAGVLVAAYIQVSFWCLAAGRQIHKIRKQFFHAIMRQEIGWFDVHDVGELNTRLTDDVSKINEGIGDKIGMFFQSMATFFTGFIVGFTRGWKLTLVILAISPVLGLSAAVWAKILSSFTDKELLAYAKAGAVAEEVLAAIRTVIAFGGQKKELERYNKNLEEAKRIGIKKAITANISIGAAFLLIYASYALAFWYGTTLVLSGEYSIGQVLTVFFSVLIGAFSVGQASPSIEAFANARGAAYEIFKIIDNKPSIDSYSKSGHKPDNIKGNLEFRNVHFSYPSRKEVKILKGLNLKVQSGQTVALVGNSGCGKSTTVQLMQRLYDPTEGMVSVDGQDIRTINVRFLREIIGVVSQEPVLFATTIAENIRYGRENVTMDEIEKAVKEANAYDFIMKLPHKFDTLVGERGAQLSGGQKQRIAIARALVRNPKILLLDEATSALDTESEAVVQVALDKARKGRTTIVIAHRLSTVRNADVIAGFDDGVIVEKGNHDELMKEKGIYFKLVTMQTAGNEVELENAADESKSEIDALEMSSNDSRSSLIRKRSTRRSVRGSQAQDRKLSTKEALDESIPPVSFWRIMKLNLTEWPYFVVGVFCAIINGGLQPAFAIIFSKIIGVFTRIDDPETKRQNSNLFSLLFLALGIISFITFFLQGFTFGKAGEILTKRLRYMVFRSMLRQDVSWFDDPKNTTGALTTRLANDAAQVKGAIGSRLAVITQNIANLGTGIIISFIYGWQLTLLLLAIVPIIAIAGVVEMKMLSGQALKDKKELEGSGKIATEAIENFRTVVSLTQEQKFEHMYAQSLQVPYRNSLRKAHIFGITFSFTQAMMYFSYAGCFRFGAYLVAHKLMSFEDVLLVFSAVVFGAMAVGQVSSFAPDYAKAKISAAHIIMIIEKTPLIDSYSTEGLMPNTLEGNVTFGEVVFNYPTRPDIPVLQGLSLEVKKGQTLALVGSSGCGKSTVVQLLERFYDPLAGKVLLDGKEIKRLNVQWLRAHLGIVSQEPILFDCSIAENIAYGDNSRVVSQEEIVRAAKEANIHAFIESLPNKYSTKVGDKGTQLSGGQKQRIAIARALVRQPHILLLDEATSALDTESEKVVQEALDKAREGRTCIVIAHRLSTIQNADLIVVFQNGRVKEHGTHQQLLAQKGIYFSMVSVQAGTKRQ
# Experiments:
# P-gp [1] = biological target: T1, P-gp (Homo sapiens, UniProt P08183); details: cited from earlier work
# P-gp [2] = biological target: T1, P-gp; assay: Calcein AM assay of exosome mediated transfer of functional P-gp; type: cell-based; parameters: endogenous in cells; host or cells: Primary human sinonasal epithelial cell cultures (HSNECCs) from control and CRSwNP patients, plus P-gp carried by autologous nasal-mucus exosomes; details: 0.625 μM Zosuquidar together with exosomes
# Description: A Calcein Acetoxymethylester (AM) assay[22] was performed on the HSNEC cultures following dosing with autologous purified mucus derived exosomes to quantify the relative acquisition of functional P-gp activity. HSNECCs were exposed to BEGM containing exosomes (1.25×10^9 exosomes/mL) or exosomes along with 0.625 μM of the 3rd generation P-gp inhibitor Zosuquidar 3HCl (Medkoo, Chapel Hill, N.C.). Pre-warmed Calcein AM (Life Technologies) was added to each well for a final concentration of 2.5 μM as previously described. After 15 minutes, each well was washed 3× with cold phosphate buffered saline and the wells were imaged in triplicate. Fluorescence was quantified using the corrected total cell fluorescence method as previously described by McCloy et al.. A reduction in calcein fluorescence corresponds to a gain in P-gp function while an increase in fluorescence corresponds to successful inhibition.
structure (smiles),measurement,setting,value
"Cl.Cl.Cl.O[C@@H](COc1cccc2ncccc12)CN1CCN([C@@H]2c3ccccc3[C@@H]3[C@H](c4ccccc42)C3(F)F)CC1 [Zosuquidar, (2R)-1-{4-[(1aR,6r,10bS)-1,1-Difluoro-1,1a,6,10b-tetrahydrodibenzo[a,e]cyclopropa[c]cyclohepten-6-yl]piperazin-1-yl}-3-(quinolin-5-yloxy)propan-2-ol,trihydrochloride]",potency relative to the first and second-generation inhibitors,P-gp [1],about 10 fold
same,effect on exosome mediated gain of P-gp function,P-gp [2],abrogated
